Assay results: IntAct's records for PubMed 21346195

B1: Shugoshin 1 (Homo sapiens), Q5FBB7 (parent)
chain: MAKERCLKKSFQDSLEDIKKRMKEKRNKNLAEIGKRRSFIAAPCQIITNTSTLLKNYQDNNKMLVLALENEKSKVKEAQDIILQLRKECYYLTCQLYALKGKLTSQQTVEPAQNQEICSSGMDPNSDDSSRNLFVKDLPQIPLEETELPGQGESFQIEDQIPTIPQDTLGVDFDSGEAKSTDNVLPRTVSVRSSLKKHCNSICQFDSLDDFETSHLAGKSFEFERVGFLDPLVNMHIPENVQHNACQWSKDQVNLSPKLIQPGTFTKTKEDILESKSEQTKSKQRDTQERKREEKRKANRRKSKRMSKYKENKSENKKTVPQKKMHKSVSSNDAYNFNLEEGVHLTPFRQKVSNDSNREENNESEVSLCESSGSGDDSDDLYLPTCKYIQNPTSNSDRPVTRPLAKRALKYTDEKETEGSKPTKTPTTTPPETQQSPHLSLKDITNVSLYPVVKIRRLSLSPKKNKASPAVALPKRRCTASVNYKEPTLASKLRRGDPFTDLCFLNSPIFKQKKDLRRSKKRALEVSPAKEAIFILYYVREFVSRFPDCRKCKLETHICLR

Variants of: B1
Details: with cbx5_human CBX5

effect of a mutation on the interaction	Variant
disrupting interaction strength	P451A;V453A;I455A
with no effect	P469A;V471A;L473A
